scFv variants of Ab-91 (heavy chain) against a SARS-CoV-2 spike peptide

Data: MIT Lincoln Laboratory AlphaSeq set, Engelhart et al. 2022, doi:10.1038/s41597-022-01779-4, as distributed in FLAb.

The target is the same throughout: PDVDLGDISGINAS, from the HR2 region of SARS-CoV-2 spike.

The variants keep the light chain, the linker and the frameworks of Ab-91 (scFv order VL, three GGGGS repeats, VH).
VL: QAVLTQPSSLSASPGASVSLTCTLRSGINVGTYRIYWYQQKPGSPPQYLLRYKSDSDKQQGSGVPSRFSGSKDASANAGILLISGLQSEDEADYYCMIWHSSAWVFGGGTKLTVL
VH: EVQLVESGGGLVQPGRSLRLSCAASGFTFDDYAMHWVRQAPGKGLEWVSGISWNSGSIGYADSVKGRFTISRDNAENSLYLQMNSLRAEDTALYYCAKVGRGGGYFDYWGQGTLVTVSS

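The starting antibody came from a phage panning campaign against this peptide. Variants in AAYL51 differ from the parent at up to three CDR positions; double and triple changes were sampled at random. The scFvs were displayed on barcoded MATa yeast, the peptide on MATalpha yeast. Mating (16 h, 30 °C) was followed by selection of diploids and sequencing of their barcodes. Each replicate has its own calibration line, from reference interactions of the BCL2 family. The assay was run in three technical replicates.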

Substitutions are numbered in sequence along the VH above, starting at 1 (not Kabat).
The read-out is the apparent dissociation constant on a log10 scale (nM): the lower, the stronger.
Replicates are averaged; those with no signal do not enter the mean.
Where no diploid with the target was found in any replicate, the entry reads "not detected": below detection, most likely a poor binder, though not proof of it.
As a blank, each scFv also met three strains without target: over library AAYL51, 21% of these pairings were detected, typically at 4.54 and seldom below 3.26.

{"changes": "A61M D62M D107A", "mean, log10 nM": "4.14", "detected": "3/3"}
{"changes": "G56A Y105M", "mean, log10 nM": "2.25", "detected": "3/3"}
{"changes": "Y105L F106G Y108W", "mean, log10 nM": "3.97", "detected": "3/3"}
{"changes": "D31R S55L", "mean, log10 nM": "1.99", "detected": "3/3"}
{"changes": "S57D A61H", "mean, log10 nM": "0.71", "detected": "3/3"}
{"changes": "G59P K65V G103Y", "mean, log10 nM": "3.76", "detected": "1/3"}
{"changes": "S63C K65R", "mean, log10 nM": "4.72", "detected": "2/3"}
{"changes": "A61C S63N V99S", "mean, log10 nM": "3.29", "detected": "1/3"}
{"changes": "N54W D62P Y108D", "mean, log10 nM": "4.54", "detected": "1/3"}
{"changes": "D31T D62A Y108K", "mean, log10 nM": "not detected", "detected": "0/3"}
{"changes": "K65C G102T D107W", "mean, log10 nM": "5.96", "detected": "1/3"}
{"changes": "W53Q S57C Y108A", "mean, log10 nM": "2.75", "detected": "3/3"}
{"changes": "W53I G56T G104V", "mean, log10 nM": "4.55", "detected": "1/3"}
{"changes": "I51L K65T G103C", "mean, log10 nM": "not detected", "detected": "0/3"}
{"changes": "Y32I G56K G104I", "mean, log10 nM": "4.24", "detected": "2/3"}
{"changes": "I51T S57K", "mean, log10 nM": "5.14", "detected": "3/3"}
{"changes": "S52V G56V Y108T", "mean, log10 nM": "5.37", "detected": "3/3"}
{"changes": "G26Q W53G S63M", "mean, log10 nM": "5.38", "detected": "1/3"}
{"changes": "T28Q A33P M34S", "mean, log10 nM": "not detected", "detected": "0/3"}
{"changes": "D30P Y32N Y60R", "mean, log10 nM": "not detected", "detected": "0/3"}